Consider three compounds from patent publication US20100324034A1 (priority 2007, published 2010).

The chains behind the UniProt entries cited, without tags or fusion partners. Residues count along the entry.
UniProt P04584, 613-1051: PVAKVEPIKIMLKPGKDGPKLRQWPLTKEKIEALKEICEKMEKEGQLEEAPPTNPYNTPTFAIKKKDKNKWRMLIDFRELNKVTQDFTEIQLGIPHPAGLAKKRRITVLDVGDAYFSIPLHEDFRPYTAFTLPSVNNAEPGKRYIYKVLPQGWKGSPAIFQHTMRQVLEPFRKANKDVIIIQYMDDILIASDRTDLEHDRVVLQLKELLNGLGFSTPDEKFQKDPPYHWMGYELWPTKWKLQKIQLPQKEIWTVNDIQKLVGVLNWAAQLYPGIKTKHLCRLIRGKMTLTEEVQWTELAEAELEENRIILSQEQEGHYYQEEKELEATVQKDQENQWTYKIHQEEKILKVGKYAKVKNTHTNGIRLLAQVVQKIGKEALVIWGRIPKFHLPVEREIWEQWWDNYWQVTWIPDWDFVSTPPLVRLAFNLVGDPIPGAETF
UniProt P04584, 613-1171: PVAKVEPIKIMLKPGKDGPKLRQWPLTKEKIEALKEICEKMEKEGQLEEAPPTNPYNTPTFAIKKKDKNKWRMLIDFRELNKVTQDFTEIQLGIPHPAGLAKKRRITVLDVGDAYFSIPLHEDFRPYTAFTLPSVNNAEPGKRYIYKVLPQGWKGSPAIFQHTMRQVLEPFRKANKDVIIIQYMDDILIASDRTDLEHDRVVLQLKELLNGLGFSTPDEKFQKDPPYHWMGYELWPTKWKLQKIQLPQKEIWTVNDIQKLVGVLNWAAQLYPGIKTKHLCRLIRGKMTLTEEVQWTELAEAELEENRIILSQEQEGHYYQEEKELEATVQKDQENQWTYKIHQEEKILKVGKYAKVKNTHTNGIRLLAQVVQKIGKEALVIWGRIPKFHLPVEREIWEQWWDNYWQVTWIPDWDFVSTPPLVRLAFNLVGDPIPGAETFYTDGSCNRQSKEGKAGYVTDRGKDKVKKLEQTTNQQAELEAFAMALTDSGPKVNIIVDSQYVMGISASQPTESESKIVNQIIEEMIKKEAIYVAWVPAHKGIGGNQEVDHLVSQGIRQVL

The subject of series [1] is ACH-2 cell line. Description: ACH-2 cell line model for HIV latency, HIV p24 expression by flow cytometry. The following applies: for % of cells induced: ACH-2 cells. In kind it is cell-based.
Series [2] concerns resting CD4+ T cells from aviremic, ART-treated HIV+ patients. In words: limiting-dilution outgrowth assay, HIV detected by p24 antigen capture ELISA. Type of series: cell-based, human. As to conditions: VPA 40 μM, SAHA 250 nM, PHA/allo. Background: In an ELISA, binding on a coated surface is turned into a signal by an enzyme label.
Series [3] has as its system human cellular DNA polymerases alpha, beta, gamma, and delta. As to conditions: cited from earlier work.
The conditions of series [4]: cited from earlier work.
The target of series [5] is HIV-2 RT (Human immunodeficiency virus type 2 subtype A, UniProt P04584). The following applies: cited from earlier work.

A word on the IC50: it is the concentration needed to halve the response being measured.

Consider `CC(/C=C/C(=O)NO)=C\[C@@H](C)C(=O)c1ccc(N(C)C)cc1` [TSA, Trichostatin A], for which the “% of cells induced” value in series [1] was found to be 78%.

Turning to `CCCC(CCC)C(=O)O` [VPA, valproic acid], in series [1], the “% of cells induced” value was 62%. Besides, the IC50 in series [1] (Homo sapiens, ACH-2, 24 h, read-out: IC50 (induction of HIV expression)) came to 910 µM. In addition, the “Infected resting cells per billion after exposure to” value in series [2] (Patient A1) is on record as 223 per billion; in series [2] (Patient B), >11,300 per billion; in series [2] (Patient C), 25 per billion.

Consider `O=C1Nc2ccc(Cl)cc2[C@@](C#CC2CC2)(C(F)(F)F)O1` [Efavirenz, (S)-6-chloro-4-(cyclopropylethynyl)-1,4-dihydro-4-(trifluoromethyl)-2H-3,1-benzoxazin-2-one], for which, in series [3], the “inhibition of human cellular DNA polymerases alpha, beta, gamma, and delta” value was “not inhibited”. In addition, in series [4], the solubility in water result is recorded as “practically insoluble”. Also, the “inhibition of HIV-2 RT” value in series [5] is reported as “not inhibited”.
